Test results taken from paper PMC4069103, “Computational Design of a pH Stable Enzyme: Understanding Molecular Mechanism of Penicillin Acylase's Adaptation to Alkaline Conditions” (PLoS ONE, 2014).

Tested on: O=C(Cc1ccccc1)Nc1ccc([N+](=O)[O-])c(C(=O)O)c1
Assay: purified protein
Conditions: pH 7.5, 25°C, 10 mM phosphate, 0.1 M KCl, hydrolysis

Which results are given for “penicillin acylase from Escherichia coli (EcPA) (Escherichia coli; D773N)”?
Km: 14.8 ± 0.5 µM; kcat: 19.5 s⁻¹; kcat/Km: 1.3e+06 M⁻¹ s⁻¹
